Measured values: US20220281918A1, “PBP BINDING BICYCLIC PEPTIDE LIGANDS” (BicycleTx Limited, priority 2019, published 2022)

B1: BCY9226 with fluorescein appended to the C-terminus with a Sar6-Lysine linker (peptide)
peptide: ACVYAPENLLCGSCA
modifications: Ci, Cii and Ciii cyclised with TATA scaffold; fluorescein appended to the C-terminus with a Sar6-Lysine linker
notes: Bicyclic peptide
B2: BCY9227 with fluorescein appended to the C-terminus with a Sar6-Lysine linker (peptide)
peptide: ACSNPTCVYTPTNLFCA
modifications: Ci, Cii and Ciii cyclised with TATA scaffold; fluorescein appended to the C-terminus with a Sar6-Lysine linker
notes: Bicyclic peptide
B3: BCY9229 with fluorescein appended to the C-terminus with a Sar6-Lysine linker (peptide)
peptide: ACNTCIYASENLLCA
modifications: Ci, Cii and Ciii cyclised with TATA scaffold; fluorescein appended to the C-terminus with a Sar6-Lysine linker
notes: Bicyclic peptide
B4: BCY9233 with fluorescein appended to the C-terminus with a Sar6-Lysine linker (peptide)
peptide: ACSATWGSRSCPVKFCA
modifications: Ci, Cii and Ciii cyclised with TATA scaffold; fluorescein appended to the C-terminus with a Sar6-Lysine linker
notes: Bicyclic peptide
B5: BCY9237 with fluorescein appended to the C-terminus with a Sar6-Lysine linker (peptide)
peptide: ACPNACWTVHYSGYQCA
modifications: Ci, Cii and Ciii cyclised with TATA scaffold; fluorescein appended to the C-terminus with a Sar6-Lysine linker
notes: Bicyclic peptide
B6: BCY9238 with fluorescein appended to the C-terminus with a Sar6-Lysine linker (peptide)
peptide: ACHEFSLDCILFGTSCA
modifications: Ci, Cii and Ciii cyclised with TATA scaffold; fluorescein appended to the C-terminus with a Sar6-Lysine linker
notes: Bicyclic peptide
B7: BCY14613 with fluorescein appended to the C-terminus with a Sar6-Lysine linker (peptide)
peptide: ACWGSWRCPIVHSCA
modifications: Ci, Cii and Ciii cyclised with TATA scaffold; fluorescein appended to the C-terminus with a Sar6-Lysine linker
notes: Bicyclic peptide
B8: BCY13797 with fluorescein appended to the C-terminus with a Sar6-Lysine linker (peptide)
peptide: ACWGSLRCPIVHSCA
modifications: Ci, Cii and Ciii cyclised with TATA scaffold; fluorescein appended to the C-terminus with a Sar6-Lysine linker
notes: Bicyclic peptide
B9: BCY14618 with fluorescein appended to the C-terminus with a Sar6-Lysine linker (peptide)
peptide: ACWGSLRCPIHYSCA
modifications: Ci, Cii and Ciii cyclised with TATA scaffold; fluorescein appended to the C-terminus with a Sar6-Lysine linker
notes: Bicyclic peptide
B10: BCY14621 with fluorescein appended to the C-terminus with a Sar6-Lysine linker (peptide)
peptide: ACWGSLRCPIKWDCA
modifications: Ci, Cii and Ciii cyclised with TATA scaffold; fluorescein appended to the C-terminus with a Sar6-Lysine linker
notes: Bicyclic peptide
B11: BCY14619 with fluorescein appended to the C-terminus with a Sar6-Lysine linker (peptide)
peptide: ACWGSLRCPITAHCA
modifications: Ci, Cii and Ciii cyclised with TATA scaffold; fluorescein appended to the C-terminus with a Sar6-Lysine linker
notes: Bicyclic peptide
B12: BCY14627 with fluorescein appended to the C-terminus with a Sar6-Lysine linker (peptide)
peptide: ACWGSKACPITWHCA
modifications: Ci, Cii and Ciii cyclised with TATA scaffold; fluorescein appended to the C-terminus with a Sar6-Lysine linker
notes: Bicyclic peptide
B13: BCY14629 with fluorescein appended to the C-terminus with a Sar6-Lysine linker (peptide)
peptide: ACWGSRQCPISWTCA
modifications: Ci, Cii and Ciii cyclised with TATA scaffold; fluorescein appended to the C-terminus with a Sar6-Lysine linker
notes: Bicyclic peptide
B14: BCY14631 with fluorescein appended to the C-terminus with a Sar6-Lysine linker (peptide)
peptide: ACWGTQKCPVGYWCA
modifications: Ci, Cii and Ciii cyclised with TATA scaffold; fluorescein appended to the C-terminus with a Sar6-Lysine linker
notes: Bicyclic peptide
B15: BCY14641 with fluorescein appended to the C-terminus with a Sar6-Lysine linker (peptide)
peptide: ACWGSKSCPITWKCA
modifications: Ci, Cii and Ciii cyclised with TATA scaffold; fluorescein appended to the C-terminus with a Sar6-Lysine linker
notes: Bicyclic peptide
B16: BCY14381 with fluorescein appended to the C-terminus with a Sar6-Lysine linker (peptide)
peptide: ACWGTSACPVTHECA
modifications: Ci, Cii and Ciii cyclised with TATA scaffold; fluorescein appended to the C-terminus with a Sar6-Lysine linker
notes: Bicyclic peptide
B17: BCY9377 with fluorescein appended to the C-terminus with a Sar6-Lysine linker (peptide)
peptide: ACRFSSCPPYHVCA
modifications: Ci, Cii and Ciii cyclised with TATA scaffold; fluorescein appended to the C-terminus with a Sar6-Lysine linker
notes: Bicyclic peptide
B18: BCY9388 with fluorescein appended to the C-terminus with a Sar6-Lysine linker (peptide)
peptide: ACDNCWERQWYACA
modifications: Ci, Cii and Ciii cyclised with TATA scaffold; fluorescein appended to the C-terminus with a Sar6-Lysine linker
notes: Bicyclic peptide
B19: BCY9389 with fluorescein appended to the C-terminus with a Sar6-Lysine linker (peptide)
peptide: ACNPRCHPVYTSFFCA
modifications: Ci, Cii and Ciii cyclised with TATA scaffold; fluorescein appended to the C-terminus with a Sar6-Lysine linker
notes: Bicyclic peptide

Each binder was assayed against T1, E. coli PBP1b (E. coli, UniProt P02919 88-844, limits assumed) (assay: fluorescence polarisation direct binding; fluorescein-labelled peptide, PBP titrated).
T1 sequence (looked up): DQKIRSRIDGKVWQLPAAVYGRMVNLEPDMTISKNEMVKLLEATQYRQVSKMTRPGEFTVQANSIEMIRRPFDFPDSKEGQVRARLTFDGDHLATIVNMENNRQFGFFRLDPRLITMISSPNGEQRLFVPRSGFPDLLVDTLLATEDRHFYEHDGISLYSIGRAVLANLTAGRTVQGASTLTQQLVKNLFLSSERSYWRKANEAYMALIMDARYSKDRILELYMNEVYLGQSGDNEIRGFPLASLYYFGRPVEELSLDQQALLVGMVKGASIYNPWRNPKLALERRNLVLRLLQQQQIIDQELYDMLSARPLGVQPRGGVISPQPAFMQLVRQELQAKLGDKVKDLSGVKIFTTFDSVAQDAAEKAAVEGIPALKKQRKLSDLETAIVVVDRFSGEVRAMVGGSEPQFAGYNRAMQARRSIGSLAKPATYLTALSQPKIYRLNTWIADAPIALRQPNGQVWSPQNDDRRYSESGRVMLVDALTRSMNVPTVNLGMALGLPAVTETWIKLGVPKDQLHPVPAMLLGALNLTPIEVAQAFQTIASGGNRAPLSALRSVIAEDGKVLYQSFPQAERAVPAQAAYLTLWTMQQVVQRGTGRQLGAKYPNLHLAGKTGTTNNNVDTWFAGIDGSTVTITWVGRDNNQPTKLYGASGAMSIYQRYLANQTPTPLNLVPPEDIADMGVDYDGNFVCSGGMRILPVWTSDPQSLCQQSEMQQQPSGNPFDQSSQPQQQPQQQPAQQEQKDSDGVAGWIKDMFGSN

Row | Binder | Kd
1 | B1 | 3750 nM
2 | B2 | 2150 nM
3 | B3 | 2240 nM
4 | B4 | 370 nM
5 | B5 | 360 nM
6 | B6 | 1350 nM
7 | B7 | 131 nM
8 | B8 | 95 nM
9 | B9 | 142 nM
10 | B10 | 239 nM
11 | B11 | 49 nM
12 | B12 | 158 nM
13 | B13 | 59 nM
14 | B14 | 62 nM
15 | B15 | 163 nM
16 | B16 | 1390 nM

What follows are binders tested against T2, S. pneumoniae PBP1a (S. pneumoniae, UniProt Q04707 37-719, limits assumed) in the same assay as above.
T2 sequence (looked up): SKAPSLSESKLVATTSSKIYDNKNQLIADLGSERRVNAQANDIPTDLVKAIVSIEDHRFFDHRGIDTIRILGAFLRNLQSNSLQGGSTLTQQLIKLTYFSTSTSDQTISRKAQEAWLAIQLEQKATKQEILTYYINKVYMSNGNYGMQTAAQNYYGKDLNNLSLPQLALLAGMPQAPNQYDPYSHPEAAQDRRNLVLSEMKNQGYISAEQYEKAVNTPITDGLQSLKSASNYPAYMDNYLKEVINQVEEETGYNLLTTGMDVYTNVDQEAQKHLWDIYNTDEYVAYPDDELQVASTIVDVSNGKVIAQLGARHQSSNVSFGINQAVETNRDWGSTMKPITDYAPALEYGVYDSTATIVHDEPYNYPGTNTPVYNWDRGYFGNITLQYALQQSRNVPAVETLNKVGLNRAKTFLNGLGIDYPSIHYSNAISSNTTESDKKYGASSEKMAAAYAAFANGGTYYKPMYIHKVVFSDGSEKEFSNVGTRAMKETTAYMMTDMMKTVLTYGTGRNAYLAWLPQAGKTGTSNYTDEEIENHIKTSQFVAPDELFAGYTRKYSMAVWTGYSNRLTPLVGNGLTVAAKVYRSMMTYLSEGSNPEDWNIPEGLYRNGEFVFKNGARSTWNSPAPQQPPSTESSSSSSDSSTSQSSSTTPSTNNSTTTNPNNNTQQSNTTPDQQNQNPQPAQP

Row | Binder | Kd
17 | B17 | 310 nM
18 | B18 | 570 nM
19 | B19 | 790 nM
